# High-throughput results: PubChem, National Center for Advancing Translational Sciences (NCATS)
# ALDH1A1 block = blocks purified human ALDH1A1 activity; P00352; Purified ALDH1A1, NADH fluorescence, propionaldehyde substrate; Potency, µM (series often up to 75.3 µM), for the others: at the top dose activity, negative = inhibition, most hits filed as inhibitors; 7.3% of 220,000 active; AID 1030; active = well fitted inhibition curve with a large enough effect, not every such curve was filed as active; inconclusive = small, poorly fitted or top-dose-only effect, or another doubt; inactive = no such curve, though single readings can be large or run the other way;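 also: potency is read from the fitted curve at half-maximal effect; plate controls were no enzyme wells and a reference inhibitor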
# LMNA splice mod = modulators of lamin A splicing | HeLa LMNA splicing GFP/RFP minigene ratio, 48 h | Potency, µM (top dose mostly 46.1 µM), for the others: at the highest dose ratio change, negative = inhibition, hits mostly inhibitors | 0.01% of 200,000 active | AID 1487; active = well fitted inhibition curve with a large enough effect in the signal ratio, with a control signal flat, not every such curve was filed as active; inconclusive = small, poorly fitted or top-dose-only effect, or effect the other way, or a change in a side signal; the % refers to the signal ratio; also: potency is read from the fitted curve at half-maximal effect; % is scaled to controls: 0 for no effect and ±100 for the full control effect
#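 Read-out is the ratio of GFP to DsRed2 object intensity, acquired by 488 nm laser-scanning cytometry on HeLa lamin A-EGFP minigene reporter cells. Compound incubation 48 hrs at 37 °C in Opti-MEM with 2% FBS; DMSO 0.5% final.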
# G9a inh = blocks human histone lysine methyltransferase G9a | Q96KQ7 | G9a H3K9 monomethylation, AlphaScreen, 2 h | Potency, µM (doses to about 102 µM), without a hit: at the highest dose activity, negative = inhibition, hits mostly inhibitors | 8.8% of 350,000 active | AID 504332; also: potency is read from the fitted curve at half-maximal effect; % is scaled to controls: 0 for no effect and ±100 for the full control effect; nearly all actives have a fitted effect of over 75% in size
#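 Readings reflect AlphaScreen signal from monomethyl-H3K9 antibody detection. HMT at 20 nM; substrate b-H3K9 500 nM; cofactor SAM 20 uM; 2 h RT reaction; compounds tested as titrations in qHTS with 15 min preincubation.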
# KDM4E inh = inhibitors of human JMJD2E histone demethylase; Potency, µM (doses to about 57.1 µM), without a hit: top-dose activity change, negative = inhibition, usual class: inhibitors; B2RXH2; AID 2147; 1.6% of 230,000 active; JMJD2E catalytic domain, FDH-coupled NADH fluorescence (FDH is formaldehyde dehydrogenase);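 also: potency is read from the fitted curve at half-maximal effect; 0% = wells with enzyme and -100% = buffer wells without enzyme; nearly all actives have a fitted effect of over 50% in size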
# miR-21 reporter = miR-21 reporter, rising signal; Potency, µM (top dose mostly 38.3 µM), for the others: at the highest dose reporter change, positive = more light; 340,000 tested, under 10 active; HeLa miR-21 FLuc reporter, luciferase, 48 h; active = well fitted rising curve with a large enough effect; inconclusive = small, poorly fitted or top-dose-only effect; inactive = no such curve, though single readings can be large or run the other way;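 note: % of control where 0% means no effect; miR-21 action dims this reporter so a rising signal means less miR-21 action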
#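 HeLa miR-21-FLuc reporter line, endogenous miR-21; 2000 cells/well in DMEM/10% FBS; compound titration up to ~40uM final, 48 h, 37 degree Celsius; luciferase detection reagent, 15 min lysis, CCD luminescence.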
# Sfp inh = qHTS Assay for Inhibitors of Bacillus subtilis Sfp phosphopantetheinyl transferase (PPTase) | 4'-phosphopantetheinyl transferase ffp (Bacillus subtilis), Q9F4F7 | AID 1490, 2009 | actives 3.5% (n = 310,000) | Biochemical Sfp PPTase activity, qHTS | Potency, µM, for inactives: max response, negative = inhibition, most hits filed as inhibitors; active = well fitted inhibition curve with a large enough effect; inconclusive = small, poorly fitted or top-dose-only effect, or another doubt; inactive = no such curve, though single readings can be large or run the other way;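 also: the enzyme is Sfp with the accession as filed and its product quenches rhodamine fluorescence; potency is read from the fitted curve at half-maximal effect; 0% = enzyme reaction without inhibitor and -100% = no enzyme wells; top concentration of the series not given in the record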
#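 Fluorescence-quenching assay: 15 nM Sfp-PPTase preincubated 15 min at room temperature with compound, then 5 uM rhodamine-CoA and 12.5 uM BHQ-2-labelled YbbR peptide added. Fluorescence (ex 525/em 598 nm) read at start and after 30 min; difference gives rate.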
# Numbers without * were called inactive; u = inconclusive; x = not tested or not shown; [ ] = another dose, or the depositor's remark. Rows were chosen to be rich in hits. Some 13% of all compounds tested hit in one or more screens of this group. Unless noted, calls follow the shape of the dose curve; as a rule, active = well fitted curve in the direction sought with a large enough effect; inconclusive = small, poorly fitted or top-dose-only effect, or another doubt; inactive = no such curve, though single readings can be large; an effect the other way counts as inactive or inconclusive.
SMILES,ALDH1A1 block,LMNA splice mod,G9a inh,KDM4E inh,miR-21 reporter,Sfp inh
COc1ccc([N+](=O)[O-])cc1NC(=O)c1cc(C)c(C)o1,8%,4%[9.22 µM],13%[59 µM],7%,1%,6%
CCCC/C(O)=N\S(=O)(=O)c1ccc(N=NN(C)C)cc1,0%,-5%,7%[59 µM],8.9µM*,2%,-1%
CN(C)N=Nc1ccc(S(N)(=O)=O)cc1,9%,u,x,5%,-1%,9%
Cc1ccc(S(=O)(=O)N(CC(=O)Nc2ccc(C(N)=O)cc2)C(=O)N2CCN(C)CC2)cc1,x,x,-6%,x,x,x
CCn1cc([N+](=O)[O-])c(C(=O)N2N=C(c3ccc(O)c(OC)c3)CC2c2ccccc2O)n1 (stereo not given),-7%,u,40µM*,-8%,-18%,8%
CCn1cc([N+](=O)[O-])c(C(=O)N2N=C(c3ccc(Cl)c(Cl)c3)CC2c2ccccc2O)n1 (stereo not given),6%,x,u,6%,u,13%
CCOC(=O)C1CCN(c2ncnc3c2cnn3C)CC1,x,x,17%[0.501 µM],x,1%,-8%
CCC12CCCN3CCC4(C(=C(C(=O)OC)C1)Nc1ccccc14)C32 (stereo not given),20µM*,12%,2.8µM*,u,3%,-1%
CC[C@@]12CCCN3CCc4c(n(c5ccccc45)[C@](O)(C(=O)OC)C1)C32 (stereo not given in full),-6%,x,-26%[2.33 µM],0%,x,18%
COc1ccc(CN2CCN(c3nc4ccccc4s3)CC2)cc1,x,x,4%,x,-8%,10%
COc1ccc(CCn2c(O)cc3nn(-c4nc5ccccc5s4)c(=O)c-3c2C)cc1,x,x,-35%,28µM*,-7%,-4%
O=C(CSC1=Nc2ccccc2N=C(c2ccc(F)cc2)C1)Nc1cccc(C(F)(F)F)c1,x,-16%[46 µM],3%[59 µM],x,14%,x
CC(=O)Nc1ccc(NC(=O)CSc2cn(CC(=O)N(C(C)C)C(C)C)c3ccccc23)cc1,x,x,-7%[59 µM],x,0%,x
Cc1ccc2oc(C(=O)N(Cc3ccc(N(C)C)cc3)CC3CCCO3)c(C)c2c1 (stereo not given),x,x,28µM*,x,-9%,-10%
Cc1cc2oc(C(=O)N(Cc3ccc(N(C)C)cc3)CC3CCCO3)c(C)c2cc1C (stereo not given),x,x,14µM*,x,9%,u
O=C1C2C3C=CC(CC3)C2C(=O)N1c1ccc(Br)cc1[N+](=O)[O-] (stereo not given),x,x,-10%,x,0%,17%
O=C1C2C3C=CC(CC3)C2C(=O)N1c1ccccc1[N+](=O)[O-] (stereo not given),u,x,u,-2%,1%,56µM*
CCOC(=O)c1c(NC(=O)COC(=O)CNC(=O)c2ccc(Cl)cc2Cl)sc(C(=O)N(C)C)c1C,x,x,-14%,x,x,x
COc1cc2[nH]c(C(=O)N3CCN(c4ccc(F)cc4)CC3)cc2c(OC)c1OC,x,x,-14%,x,-1%,8%
Cc1csc(N)n1,-7%,-8%,u,-11%,-4%,u
Cc1ccc(-c2csc(N)n2)s1,u,-21%,u,1%,-2%,35µM*
CNc1nc(-c2c(C)[nH]c3ccc(OC)cc23)cs1,x,x,40µM*,x,-3%,-5%
CCCC(=O)Nc1nc(C)c(-c2csc(Nc3ccccc3OC)n2)s1,u,3%,u,4%,12%,-27%
Cc1[nH]c2ccccc2c1-c1csc(N)n1,x,x,79µM*,x,3%,-7%
COc1ccccc1Nc1nc(-c2c(C)[nH]c3ccccc23)cs1,u,3%,14µM*,28µM*,0%,-15%
CCOc1ccc(CCNC(=O)CCc2cn(Cc3ccc(C)cc3)c3ccccc23)cc1,x,x,-31%[59 µM],x,10%,x
Cc1ccc2c(c1)cc(C(=O)NCc1ccc(F)cc1)n2C,x,u,5%[59 µM],x,21%,x
Cc1cccnc1N(C(=O)Nc1ccccc1)C1=NCC(C)(C)S1,3%,1%,56µM*,-5%,-23%,-2%
COC(=O)[C@H](CC(C)C)NC(=O)c1cc2c(cn1)[nH]c1ccccc12,x,x,7.9µM*,x,-1%,45µM*
COC(=O)C(Cc1ccccc1)NC(=O)c1cc(=O)[nH]c2ccccc12 (stereo not given),u,-8%[46 µM],2%,u,-4%,16%
COc1ccc(-n2nc(C(=O)NCC(=O)N3CCCC3)c3ccccc3c2=O)cc1Cl,x,x,19%,x,2%,33%
CCn1c(O)c(N=Nc2ccc3ccccc3n2)c2ccccc21,x,x,x,-2%,-63%,22µM*
Cc1cccc(OC(C)C(=O)N2CCC(c3nc4ccccc4o3)CC2)c1C (stereo not given),x,u,-4%[59 µM],x,0%,x
NC[C@@H]1O[C@@H](O[C@H]2[C@H](O)[C@H](O[C@@H]3O[C@H](CO)[C@@H](O)[C@H](N)[C@@H]3O)[C@@H](N)C[C@H]2N)[C@H](N)C[C@@H]1O,5%[20.9 µM],u,31%[21.5 µM],5%[25.5 µM],x,9%
COc1cccc(/C=N/Nc2ncnc3c2[nH]c2ccc(C)cc23)c1OC,x,x,56µM*,u,-13%,-30%
COc1cccc(/C=N/Nc2ncnc(N)c2[N+](=O)[O-])c1OC,-3%,1%,u,1%,-42%,45µM*
COc1cccc(/C=N/Nc2ncc(C)c(=O)[nH]2)c1OC,x,x,32µM*,x,-2%,-5%
COc1ccc(/C=N/Nc2ncnc3c2[nH]c2ccccc23)c(OC)c1OC,-15%,0%,17%[59 µM],u,-10%,-9%
Cc1cc(/C=N/Nc2ncnc(N)c2[N+](=O)[O-])c(C)n1-c1ccccc1,x,x,15%[59 µM],-22%,8%,u
COc1ccccc1C(=O)NCC(=O)NNc1ncnc(N)c1[N+](=O)[O-],13%,x,9%,7%,-15%,7.1µM*
O=C1COc2ccc(-c3cc(-c4ccc(F)cc4)c4c(n3)-c3ccccc3OC4)cc2N1,x,x,11%[59 µM],x,5%,x
N=C(N)SCCN=C(N)N,x,x,x,x,x,3%
CCc1ccc(-c2nn(CC(=O)Nc3ccccc3)c3c2cnc2ccc(F)cc23)cc1,x,u,5%[59 µM],x,-37%,x
CC1(C)Cc2nc3sc4c(SCC(=O)NCc5ccco5)ncnc4c3cc2CO1,8.9µM*,u,u,u,1%,u
Cc1nc2c(sc3nc4c(cc32)COC(C)(C)C4)c(=O)n1CC(=O)NCc1ccco1,u,16%,13%[59 µM],u,-10%,-17%
S=c1nc[nH]c2c1sc1nc(-c3ccccc3)c3c(c12)CCCC3,2.5µM*,-6%,1%[59 µM],1%,2%,0%
CC(C)Cc1nc2sc3c(SCC(N)=O)ncnc3c2c2c1CCC2,7%,x,-16%,8%,-6%,9%

# 2 entries picked at random from those above:
SMILES,ALDH1A1 block,LMNA splice mod,G9a inh,KDM4E inh,miR-21 reporter,Sfp inh
O=C1C2C3C=CC(CC3)C2C(=O)N1c1ccccc1[N+](=O)[O-] (stereo not given),u,x,u,-2%,1%,56µM*
CC[C@@]12CCCN3CCc4c(n(c5ccccc45)[C@](O)(C(=O)OC)C1)C32 (stereo not given in full),-6%,x,-26%[2.33 µM],0%,x,18%

# Complete entries, quoted from the list:
# `CCn1c(O)c(N=Nc2ccc3ccccc3n2)c2ccccc21` is entered as ALDH1A1 block: x; LMNA splice mod: x; G9a inh: x; KDM4E inh: -2%; miR-21 reporter: -63%; Sfp inh: 22µM*
# `S=c1nc[nH]c2c1sc1nc(-c3ccccc3)c3c(c12)CCCC3` is entered as ALDH1A1 block: 2.5µM*; LMNA splice mod: -6%; G9a inh: 1%[59 µM]; KDM4E inh: 1%; miR-21 reporter: 2%; Sfp inh: 0%
